IC50 data for two compounds are collected here from patent EP4782448A1, “SUBSTITUTED PYRIDOTRIAZOLE COMPOUND, AND PREPARATION METHOD THEREFOR AND USE THEREOF” (Origiant Pharmaceutical Co., Ltd., priority 2023, dated 2025).

The test has as its target T1, RIPK1 Kinase (Homo sapiens, UniProt Q13546).
T1 construct: purchased Eurofins (Kinase Profiler service)
T1 sequence (Q13546 1-671): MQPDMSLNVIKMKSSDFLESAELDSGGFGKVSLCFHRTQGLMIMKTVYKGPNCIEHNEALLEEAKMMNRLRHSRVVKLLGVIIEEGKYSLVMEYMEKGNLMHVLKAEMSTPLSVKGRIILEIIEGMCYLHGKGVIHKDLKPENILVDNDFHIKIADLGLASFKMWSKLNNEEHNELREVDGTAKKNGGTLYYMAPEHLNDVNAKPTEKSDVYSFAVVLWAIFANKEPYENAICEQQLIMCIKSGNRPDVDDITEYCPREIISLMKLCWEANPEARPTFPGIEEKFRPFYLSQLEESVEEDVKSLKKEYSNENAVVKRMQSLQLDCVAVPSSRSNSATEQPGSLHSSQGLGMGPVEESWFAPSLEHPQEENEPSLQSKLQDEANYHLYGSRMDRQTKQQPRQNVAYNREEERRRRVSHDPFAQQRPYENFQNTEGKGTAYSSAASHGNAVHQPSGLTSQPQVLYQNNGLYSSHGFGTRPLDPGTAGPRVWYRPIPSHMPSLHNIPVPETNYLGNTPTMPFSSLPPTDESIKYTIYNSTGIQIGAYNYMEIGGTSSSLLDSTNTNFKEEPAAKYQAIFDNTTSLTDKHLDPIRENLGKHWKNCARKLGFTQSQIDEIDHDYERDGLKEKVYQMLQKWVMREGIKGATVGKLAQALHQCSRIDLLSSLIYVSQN
Description: biochemical.

Molecules are shown by their SMILES.

With `CCn1cc(C(=O)N[C@@H](C)c2ccc(F)cc2)c2cc(-c3ccn4nc(NC(=O)CN5CCOCC5)nc4c3)ccc21` [Compound 8], the half-maximal inhibitory concentration (IC50) is 10 to 100 nM.

Take `C[C@H](NC(=O)c1cn(C)c2ccc(-c3ccn4nc(NC(=O)CN5C6CCC5COC6)nc4c3)cc12)c1ccc(F)cc1` [Compound 73]: the IC50 was in the range of 10 to 100 nM.
